# Assay results published in publication PMC7613515, “Reading and erasing of the phosphonium analogue of trimethyllysine by epigenetic proteins” (Communications Chemistry, 2022).
# Test system: KDM4AJmjC (M1–L359)
# Assay: MALDI-TOF demethylation assay, KDM4AJmjC
# Assay type: biochemical, human
# Details: KDM4AJmjC 2.4 µM, peptide 5.0 µM, 1 hr, duplicates
# From the text: To investigate whether H3KP9me3 can be demethylated by other human KDM4 subfamily members, recombinant KDM4AJmjC (M1–L359) and KDM4DJmjC (M1–L358) were produced in E. coli following an adaption of literature procedures[38],[39]. […] No evidence for further demethylation was accrued. […] To test the ability of KDM3 and KDM7 subfamily representatives to demethylate H3KP9me2 or H3KP9me3, KDM3AJmjC (T515–S1317) and KDM7BJmjC (M37–N483) were produced using baculovirus/sf9 and E. coli expression systems, respectively[40],[41]. The synthesis of a histone H3 mimic peptide H3KP9me2 substrate is challenging as the tri-alkylated phosphine group is susceptible to oxidation during synthesis of the protected amino acid and during SPPS requiring oxygen-free conditions. Thus, to investigate if KDM3AJmjC or KDM7BJmjC can catalyse demethylation of H3KP9me2, an appropriate H3KP9me2 substrate was prepared in situ from H3KP9me3 using KDM4EJmjC (2.0 µM), in the presence of KDM3AJmjC (2.0 µM) or KDM7BJmjC (2.0 µM).
# A Bruker Daltonics MALDI-TOF/TOF AutoflexSpeed machine and Bruker MTP 384 target plates (polished steel BC, Part: 8280781) were used. The machine was controlled using Flex control (v. 3.4 build 135.10) and Compass for flex series (v. 1.4) software. Measurements were in the positive ion mode with the reflectron mode enabled. […] Samples were then analysed by MALDI-TOF. […]
substance,measurement,value
"ARTKQTAR(Kme3)STGGKA [H3K9me3, natural trimethyllysine control peptide, histone H3 residues 1–15, reference compound]",demethylation,clear demethylation activity
